## Binding of CDR-mutated scFvs to a peptide of the spike HR2 region

Data: MIT Lincoln Laboratory AlphaSeq set, Li et al. 2023, doi:10.1038/s41467-023-39022-2, as distributed in FLAb.

Binding partner: SARS-CoV-2 spike HR2 peptide, sequence PDVDLGDISGINAS.

The variants keep the heavy chain, the linker and the frameworks of Ab-14 (scFv order VH, three GGGGS repeats, VL).
VH: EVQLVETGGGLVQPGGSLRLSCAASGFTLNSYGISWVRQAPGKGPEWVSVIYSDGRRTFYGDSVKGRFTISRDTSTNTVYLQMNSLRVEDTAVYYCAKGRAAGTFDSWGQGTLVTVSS
VL: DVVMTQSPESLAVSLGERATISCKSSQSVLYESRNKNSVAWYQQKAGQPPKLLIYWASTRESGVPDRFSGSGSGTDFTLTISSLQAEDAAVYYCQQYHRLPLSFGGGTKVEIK

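The parent was found by panning a naive human phage display library on the peptide. Designed CDR sequences, proposed from the first random library and measured here. Group labels follow the data file (Ctrl: baseline library sampled from a position-specific scoring matrix, with some repeated check sequences; En: ensemble of fine-tuned language models; GP: Gaussian process model; HC: hill climbing; Gen: genetic algorithm; Gibbs: Gibbs sampling; a sequence that several methods proposed may carry one label only). Affinity was read by AlphaSeq, a pooled yeast mating assay with surface-displayed partners. Binding brings cells together so that they mate, and sequencing counts the barcode pairs among the diploids. Each replicate has its own calibration line, from reference interactions of the BCL2 family. Mating was done six times.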

Each variant is given by its three light chain CDRs, as the data file delimits them; those of the parent are KSSQSVLYESRNKNSVA, WASTRES, QQYHRLPLS. Values are apparent Kd, the geometric mean of the replicates that gave a signal; lower means stronger binding. A pair that was not seen in any replicate is written "not detected"; this usually means weak binding, but a binder can also be missed. Entries are sorted by rising average, undetected variants last. A sequence measured in both rounds can read differently, since the two assays cover different ranges. The authors' rule: three or more of the six replicates give a measured affinity, fewer mean a poor binder. Of ten entries with the parent sequence, four were seen in most replicates (averages 2.2 nM to 240 nM), three in one and three in none, so single entries are noisy. Background: pairings of all light chain designs with three empty control strains gave a value in 4% of cases (median 430 nM, 5th percentile 38 nM). Values in that range, when seen in few replicates, are hard to tell from nonspecific mating.

CDR-L1	CDR-L2	CDR-L3	group	Kd (apparent)	replicates with signal
HLSQSVLYESRNKNSVA	EASTRES	QQYHRLPLS	GP_Gen	380 pM	6/6
HLSQSMLYESRNKNSVA	NASTRES	QQYHRLPLS	GP_Gen	390 pM	6/6
KVSQSYLLESRNKNSVA	EASTRES	QQYHRLPLS	GP_HC	410 pM	6/6
KCDPSHLGESRNKNAVA	QASTREE	QQYHRLPLS	GP_Gibbs	480 pM	6/6
KVSQSVLYESRMKNSVA	DASTRES	QQYHRLPLS	GP_HC	490 pM	6/6
KVQQSWLYESRNKNAVA	NASTRES	QQYHRLPLS	GP_Gen	500 pM	6/6
KLSWSELYESRNKNSVA	GASTRES	QQYHRLPLS	GP_Gen	540 pM	6/6
KLSQSQEYESRNKNSVA	DATQRLV	QQYHRLPLS	GP_Gibbs	560 pM	6/6
KLDQSMLYESRNKNSVA	NASQRES	QQYHRLPLS	GP_Gen	570 pM	6/6
KVSGSWLYESRNKNSVA	EASTRES	QQYHRLPLS	GP_Gen	580 pM	6/6
KLSFSMLYESRNKNSVA	NASQRES	QQYHRLPLS	GP_Gen	620 pM	6/6
KLSQSWLYESRNKNSVA	NASTRET	QQYHRLPLS	GP_Gen	640 pM	6/6
KLQQSVEYESRNKNSVA	EASTRLS	QQYHRLPLS	GP_Gen	640 pM	6/6
KLSQSFLYESRNKNSVA	NASTRLS	QQYHRLPLS	GP_Gen	650 pM	6/6
KVSQSNLMESRNKNSVA	EASTRES	QQYHRLPLS	GP_HC	670 pM	6/6
KFSQSQLYESRNKNSVA	NASTRES	QQYHRLPLS	GP_Gen	720 pM	6/6
KIQQAVNYLSRVMNSVA	DNSTRES	QQYFRLPLS	En_HC	720 pM	6/6
KSSFSYLGEKRNKNSVA	EASTRES	QQYHRLPLS	GP_HC	760 pM	6/6
KLSQSVLYESRNFNSVA	NASTRES	QQYHRLPLS	GP_Gen	780 pM	6/6
KLSQSVLYESRNKNSVA	HASQRCS	QQYHRLPLS	GP_Gen	790 pM	6/6
KLRQQTLYESRNKNSVA	NASTREE	QQYHRLPLS	GP_HC	800 pM	6/6
HLSQSVLYESRQKNSVA	NASTRES	QQYHRLPLS	GP_Gen	930 pM	6/6
KLMQEDEYQSRMKNSVA	HASERLS	QQYHRLPLS	GP_Gibbs	1.3 nM	6/6
KLHISDGYESRNKNSVA	AASTRSH	QQYHRLPLS	GP_Gibbs	1.3 nM	6/6
KFSQQVLYEDRQKNSVA	NASQRFS	QQYHRLPLS	GP_Gibbs	1.4 nM	6/6
KSPQSVLYESRNKNSVA	EASTRED	QSYHRLPLS	GP_HC	1.5 nM	6/6
FIQGFGENSNRNSKNIA	SKETRQV	QQYDRLPLS	En_Gibbs	1.5 nM	6/6
KSSSVVLYESFNKNSVA	NASTRMS	QQYHRLPLS	GP_HC	1.7 nM	6/6
KLYQNVGTASHNKQSIA	DMERRED	QQYHRLPLS	En_HC	1.9 nM	6/6
RLNCSQYDKYEHGKAIA	ADQTRMS	QQYFRLPLS	En_Gibbs	2.2 nM	6/6
KVSQSWLYESRNKNSVA	HASTRES	QQYHRLPLS	GP_Gen	2.6 nM	6/6
KYSGSVLYEDRMVNSVA	NASQREE	QQYHRLPLS	GP_Gibbs	2.8 nM	6/6
KLVQFMNRGTHHTSNIA	DAQNRID	QQYARLPLF	En_Gen	3.0 nM	6/6
KVSQGIFDGERNSHSIA	EVTELCT	QQYSRLPLE	En_Gibbs	3.0 nM	6/6
KISQMSTIESISHNSVA	QTSTRES	QQYDRLPLS	En_HC	3.0 nM	6/6
KLTSLTGTEKVRGNNVA	EMETRES	QQYNRLPLA	En_Gen	4.3 nM	6/6
HFAHPWQSGYESKQNVA	NASTVMT	QHYNRLPLS	En_Gibbs	4.3 nM	6/6
KSSISLLYESRMKNSVA	EASTRES	QQYHRLPLS	GP_HC	4.3 nM	6/6
HMSMVTLSGMRHTNSVA	QMTTRVN	QQYDRLPLT	En_Gen	4.4 nM	6/6
KVSQSMWYESRMKNSVA	NASMREQ	QQYHRLPLQ	GP_Gibbs	5.1 nM	6/6

Continued, with the values leading:

Kd (apparent)	replicates with signal	CDR-L1	CDR-L2	CDR-L3	group
5.2 nM	4/6	KSSQSVLGESRNKASVA	EASTRES	QQYHRLPLS	Ctrl
5.3 nM	6/6	KISGSELEESRNKNSVA	WASVREA	QQYHRLPLS	GP_Gibbs
5.9 nM	6/6	LSSESYLYESPNKNSVA	EASTRES	QQYHRLPLS	GP_HC
6.3 nM	5/6	SMYPFEVAIGEGTQNVA	HVSVRAL	QQYFRLPLV	En_Gibbs
10 nM	6/6	KSSQSVLYESVNKDSVA	NASTRES	QQYHLLPLS	Ctrl
11 nM	6/6	KFSNMSNSMSVSKSAVA	EMSTRPE	QQYNRLPLA	En_Gen
11 nM	6/6	KSSQSVLFESRNKNSVA	QASTRES	QQYHRLPLY	Ctrl
12 nM	6/6	QLSGPMLMESKNKNSVA	EFSTRGS	QQYHRLPLS	En_HC
14 nM	6/6	KLRMSTGYEMRNKDSIA	DNSTRGR	QQYHRLPLS	En_HC
15 nM	5/6	HMSQSVLYESRNKNSIA	WASTRES	QQYHRLPLS	Ctrl
17 nM	6/6	KVSQLDLGGSRNKNSVA	HAHTRLS	QQYHRLPLS	GP_Gibbs
20 nM	1/6	QSSQSFLYESRNKNSVA	WASTRES	QQYHRLHLS	Ctrl
21 nM	1/6	RLLDWYYGQTAMDSNIA	DQALEMD	QQYSRLPLT	En_Gibbs
23 nM	6/6	KISQMVRVGATHSNSIA	EEVTRAK	QQYHRLPLA	En_Gen
24 nM	6/6	TISQMSTMFSQSINNVA	EVSTREQ	QQYDRLPLV	En_Gen
26 nM	4/6	KSSQSDLLESRNKNSVA	YASTRES	QQYHRLPVS	Ctrl
30 nM	6/6	KSSQSLLYESRNKNSVA	WASTRES	QQYFRLPLS	Ctrl
31 nM	1/6	QLSLMLNDMDTRMWAVA	EGNQAKE	QDYHRLPLM	En_Gibbs
38 nM	4/6	KSSQSVLFESRNKNSVA	AASTRES	QQYHRLPLS	Ctrl
38 nM	6/6	TISQMTFVESKNRNNVA	EMTTREN	QDYDRLPLS	En_HC
39 nM	4/6	MISQLMNMGTFAINSVA	QASIRNA	QQYDRLPLI	En_Gen
47 nM	6/6	HINEVDHGVENKYNNIA	DISELAI	QQYFQLPIS	En_Gibbs
57 nM	2/6	KSLQSVDYESRNKNSVA	HASTRED	QQYHRLPLS	GP_HC
81 nM	2/6	MISQLINMGQFAINSVA	QAETRCN	QQYDRLPLM	En_Gen
82 nM	3/6	IISQSVLGGYHNKNSVA	QTSERGQ	QQYDRLPLA	En_HC
95 nM	6/6	KSSQNVLYESRNKNSVA	WDSTRES	QQYHRLPLS	Ctrl
110 nM	1/6	KSSQSVLYESRNKNSVA	FASTRIS	QQYHRLPLS	Ctrl
150 nM	5/6	TISQLMNMGQFAINSVA	QASIRNE	QQYDRLPLI	En_Gen
360 nM	4/6	KLSMKTYGPTEDKSNVA	NDEMRWQ	QQYDKLPLI	En_Gibbs
360 nM	4/6	KSSQSVLDESRPKNSVA	QASTRES	QQYHYLPLS	Ctrl
1.4 µM	3/6	KQSMSVMMGSRNKNSVA	SAHKREH	QQYHRLPLS	GP_Gibbs
not detected	0/6	IVSQLMLWGYHAKNSIA	EAEMRIN	QQYDRLPLF	En_Gen
not detected	0/6	KSSNSVLYESRNKNSVA	MASTRES	QQYTRLPLS	Ctrl
not detected	0/6	KSSQSVLYESRNKNSVA	WASLRES	QQYHRLPLS	Ctrl
not detected	0/6	KSSQGVGYESRNKNMVA	WASTRES	QQYHRLPLS	Ctrl
not detected	0/6	KSSQSVLYESRNNNSVA	WASTRES	EQRHRLPWS	Ctrl
not detected	0/6	KVSQSVLYESWNKNSVA	WASTRES	QTYFRLPLS	Ctrl
not detected	0/6	KISQMVTYESTWHNAIA	QTSEREQ	QQYHRLPFS	En_HC
not detected	0/6	KSSQSVLYESRNKHSVA	WASQRES	GQYHRLPLS	Ctrl
not detected	0/6	MISQLYNMGQFAINSVA	QASIRCN	QQYDRLPLA	En_Gen

Top 9 of the variants detected in all replicates, tightest first:

CDR-L1	CDR-L2	CDR-L3	group	Kd (apparent)	replicates with signal
HLSQSVLYESRNKNSVA	EASTRES	QQYHRLPLS	GP_Gen	380 pM	6/6
HLSQSMLYESRNKNSVA	NASTRES	QQYHRLPLS	GP_Gen	390 pM	6/6
KVSQSYLLESRNKNSVA	EASTRES	QQYHRLPLS	GP_HC	410 pM	6/6
KCDPSHLGESRNKNAVA	QASTREE	QQYHRLPLS	GP_Gibbs	480 pM	6/6
KVSQSVLYESRMKNSVA	DASTRES	QQYHRLPLS	GP_HC	490 pM	6/6
KVQQSWLYESRNKNAVA	NASTRES	QQYHRLPLS	GP_Gen	500 pM	6/6
KLSWSELYESRNKNSVA	GASTRES	QQYHRLPLS	GP_Gen	540 pM	6/6
KLSQSQEYESRNKNSVA	DATQRLV	QQYHRLPLS	GP_Gibbs	560 pM	6/6
KLDQSMLYESRNKNSVA	NASQRES	QQYHRLPLS	GP_Gen	570 pM	6/6